Assay [1] addresses T1, hPTP1B1–400 (Homo sapiens, UniProt P18031).
T1 sequence (P18031 1-400): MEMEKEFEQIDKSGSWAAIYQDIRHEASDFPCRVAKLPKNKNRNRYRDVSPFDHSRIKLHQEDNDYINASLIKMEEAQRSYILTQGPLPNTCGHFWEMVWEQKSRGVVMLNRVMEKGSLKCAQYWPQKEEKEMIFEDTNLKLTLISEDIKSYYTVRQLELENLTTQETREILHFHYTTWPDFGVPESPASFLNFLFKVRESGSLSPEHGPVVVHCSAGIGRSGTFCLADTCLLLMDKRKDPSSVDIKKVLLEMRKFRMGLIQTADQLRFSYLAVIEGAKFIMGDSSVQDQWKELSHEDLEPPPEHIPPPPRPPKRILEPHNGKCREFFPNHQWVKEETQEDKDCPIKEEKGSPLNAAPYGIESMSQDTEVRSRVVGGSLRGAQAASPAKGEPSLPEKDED
In words: Kinetic studies of PTP1B (hPTP1B1–400).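 Further: enzyme kinetics run across a range of substrate and inhibitor levels, control lacking inhibitor, triplicate runs, parameters derived by fitting Michaelis–Menten style equations.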 The settings on record: K i, ± S.D; hPTP1B1–400, p‐NPP 0.1 to 0.5 mM.

The target of assay [2] is T1, hPTP1B1–400. In words: PTP1B activity assay, long form hPTP1B1–400 (p‐NPP). Type of assay: biochemical. Set-up: hPTP1B1–400 (the long form with an intrinsically disordered C‐terminal regulatory domain). The settings on record: ± S.D; p‐NPP substrate, 15 min at 37 °C, triplicate. The protocol:
The inhibitory activity of PTP1B was assessed using two enzyme variants: hPTP1B1–285 (the short form with an N‐terminal catalytic domain) and hPTP1B1–400 (the long form with an intrinsically disordered C‐terminal regulatory domain). […] According to Coronel‐Tovar et al., the disordered region of the C‐terminal domain plays a crucial role in modulating PTP1B enzymatic activity.^[ [30] ^] […] Different concentrations of the compounds were evaluated to determine their IC50 values (Table 1 ).
Recombinant human protein tyrosine phosphatase 1B, consisting of 400 and 285 amino acid residues, was used.^[ [35] ^] […] Aliquots of 0–10 µL of the test compounds (triplicate) were taken and incubated for 15 min at 37 °C with 85 µL of Tris buffer solution (50 mM, pH 6.8) containing PTP1B enzyme and 5 µL of p‐nitrophenyl phosphate substrate (p‐NPP, 10 mM). Absorbance was then measured at a wavelength of 405 nm. The inhibitory activity was determined according to Equation (1). (1) % PTP1B=(A405b/A405c)×100 where % PTP1B: Is the percentage of inhibition. A 405c: Is the corrected absorbance of the blank (A 405initial–A 405final). A 405b: Is the corrected absorbance of the compounds (A 405control–A 405compound).

As usually defined, the Ki is a measure of affinity in units of concentration, obtained from inhibition or displacement. As usually defined, the IC50 is the point on the concentration scale where inhibition reaches its midpoint.

At hPTP1B1–400 [1], `CC1(C)[C@@H](O)CC[C@]2(C)[C@H]3C(=O)C=C4[C@H]5C[C@@](C)(C(=O)O)CC[C@]5(C)CC[C@@]4(C)[C@]3(C)CC[C@@H]12` [18α‐GA, 18α‐glycyrrhetinic acid] returned a Ki of 620 ± 190 nM. At hPTP1B1–400 [2], this compound displayed an IC50 of 2.87 ± 0.21 µM.
The matching figures for `CC1(C)[C@@H](O)CC[C@]2(C)[C@H]3C(=O)C=C4[C@@H]5C[C@@](C)(C(=O)O)CC[C@]5(C)CC[C@@]4(C)[C@]3(C)CC[C@@H]12` [18β‐GA, 18β‐glycyrrhetinic acid]: 1630 ± 500 nM and 15.4 ± 0.95 µM.

Values taken from publication PMC12640663, “Impact of C18 Epimerization of Indole‐ and Pyrazole‐Fused 18β‐Glycyrrhetinic Acid Derivatives on PTP1B and TCPTP Inhibitory Activity: Synthesis, In Vitro, and In Silico Studies” (Chemmedchem, 2025).
